target: T1, human MUC1-C-L-his antigen (Homo sapiens, UniProt P15941); experiment: Determination of affinity of anti-MUC1-C antibodies using Biacore; details: Biacore 8K, antibody captured on Protein A chip, 1:1 binding model
T1 construct: made in house; host or cells: 293 cells (transient, pTT5 vector)
Description: • 1. Instrument: Biacore 8K, Cytiva • 2. Material: Protein A biosensor chip (Cat. #29127556, Cytiva) • 3.
The affinity of the antibodies of the present disclosure for the human MUC1-C-L-His antigen was determined using a Biacore 8K instrument.
Method: An antibody molecule was affinity-captured by a Protein A biosensor chip, and the antigen molecule, at a certain concentration, was then allowed to flow through the surface of the chip continuously for 180 s, followed by 600 s of natural dissociation. The reaction signals were detected in real time by the Biacore 8K instrument to obtain an association and dissociation curve. After the dissociation in each experimental cycle was complete, the biosensor chip was regenerated with 10 mM glycine-HCl (pH 1.5). Data fitting was performed using the Kinetics 1:1 binding model.

Chains of the proteins cited; added tags and fusions are not shown. A line that says so, or that is headed by a name, gives the form on record, which may keep a tag or linker.
UniProt P15941, with tags, fused parts or gaps: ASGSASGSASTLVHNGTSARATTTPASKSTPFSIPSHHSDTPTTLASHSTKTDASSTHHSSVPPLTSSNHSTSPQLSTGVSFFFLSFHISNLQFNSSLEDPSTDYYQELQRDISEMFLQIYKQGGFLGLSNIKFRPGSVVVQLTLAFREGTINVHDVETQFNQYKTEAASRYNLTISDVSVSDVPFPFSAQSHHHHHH

Row | Molecule | ka [M⁻¹ s⁻¹] | kd [s⁻¹]
1 | F4-18-H2L4: humanized antibody of F4-18: huF4-18VH2 + huF4-18VL4 (antibody) heavy: EVQLVQSGAEVKKPGASVKVSCKASGYTFTSYGINWVRQRPGQGLEWIGYIYLGSDYTEYNEKFKGRVTLTSDTSASTAYMELSSLRSEDTAVYYCARSAGSLFAYWGQGTLVTVSSASTKGPSVFPLAPSSKSTSGGTAALGCLVKDYFPEPVTVSWNSGALTSGVHTFPAVLQSSGLYSLSSVVTVPSSSLGTQTYICNVNHKPSNTKVDKKV[human IgG1 Fc not spelt out] light: DIQLTQSPSSLSASVGDRVTITCRASQDIGITLNWLQQEPGGAIKRLIYATSSLDSGVPKRFSGSRSGSDYTLTISSLQPEDFATYYCLQYASSPYTFGGGTKVEIKRTVAAPSVFIFPPSDEQLKSGTASVVCLLNNFYPREAKVQWKVDNALQSGNSQESVTEQDSKDSTYSLSSTLTLSKADYEKHKVYACEVTHQGLSSPVTKSFNRGEC | 159000 | 0.000915
2 | F4-18-H4L4: humanized antibody of F4-18: huF4-18VH4 + huF4-18VL4 (antibody) heavy: EVQLVQSGAEVVKPGASVKMSCKTSGYTFTSYGINWVRQRPGQGLEWIGYIYLGSDYTEYNEKFKGRVTLTSDTSASTAYMELSSLRSEDTAVYYCARSGGSLFAYWGQGTLVTVSSASTKGPSVFPLAPSSKSTSGGTAALGCLVKDYFPEPVTVSWNSGALTSGVHTFPAVLQSSGLYSLSSVVTVPSSSLGTQTYICNVNHKPSNTKVDKKV[human IgG1 Fc not spelt out] light: DIQLTQSPSSLSASVGDRVTITCRASQDIGITLNWLQQEPGGAIKRLIYATSSLDSGVPKRFSGSRSGSDYTLTISSLQPEDFATYYCLQYASSPYTFGGGTKVEIKRTVAAPSVFIFPPSDEQLKSGTASVVCLLNNFYPREAKVQWKVDNALQSGNSQESVTEQDSKDSTYSLSSTLTLSKADYEKHKVYACEVTHQGLSSPVTKSFNRGEC | 188000 | 0.00165
3 | F4-1-H1L2: humanized antibody of F4-1: huF4-1VH1 + huF4-1VL2 (antibody) heavy: EVQLVQSGAEVKKPGASVKVSCKASGYTFTDNYINWVRQAPGQRLEYMGWIYPGSGNNKFNEKFKGRVTITVDTSASTAYMELSSLRSEDTAVYYCARDYPFPSYHYGMDYWGQGTTVTVSSASTKGPSVFPLAPSSKSTSGGTAALGCLVKDYFPEPVTVSWNSGALTSGVHTFPAVLQSSGLYSLSSVVTVPSSSLGTQTYICNVNHKPSNTKVDKKV[human IgG1 Fc not spelt out] light: DIQLTQSPSSLSASVGDRVTITCSASSSVSYIHWFQQKPGKAPKLWIYSTSNLASGVPSRFSGSGSGTDFTLTVSSLQPEDFATYYCQQRSSYPPTFGGGTKVEIKRTVAAPSVFIFPPSDEQLKSGTASVVCLLNNFYPREAKVQWKVDNALQSGNSQESVTEQDSKDSTYSLSSTLTLSKADYEKHKVYACEVTHQGLSSPVTKSFNRGEC | 305000 | 0.0014
4 | M6-H1L3: humanized antibody of M6: huM6VH1 + huM6VL3 (antibody) heavy: EVQLVQSGAEVKKPGASVKVSCKASGYTFTPYWIEWVRQAPGQGLEWMGEILPGTGRTNYNEKFKGRVTFTADTSTNTVYMELSSLRSEDTAVYYCARYGDDTSGGYYAVDYWGQGTTVTVSSASTKGPSVFPLAPSSKSTSGGTAALGCLVKDYFPEPVTVSWNSGALTSGVHTFPAVLQSSGLYSLSSVVTVPSSSLGTQTYICNVNHKPSNTKVDKKV[human IgG1 Fc not spelt out] light: DIVMTQSPATLSLSPGERATLSCRASESVNILGTNLIHWYQQKPGQAPKLLIYHASNLETGIPARFSGSGSRTDFTLTISSLEPEDVAVYYCLQSRKIPWTFGGGTKVEIKRTVAAPSVFIFPPSDEQLKSGTASVVCLLNNFYPREAKVQWKVDNALQSGNSQESVTEQDSKDSTYSLSSTLTLSKADYEKHKVYACEVTHQGLSSPVTKSFNRGEC | 247000 | 0.00432
5 | M6-H4L1: humanized antibody of M6: huM6VH4 + huM6VL1 (antibody) heavy: EVQLVQSGAEVKKPGASVKVSCKASGYRFIPYWIEWVRERPGHGLEWMGEILPGTGRTNYNEKFKGRVTFTADTSTNTVYMELSSLTSEDTAVYYCARYGDDTSGGYYAVDYWGQGTTVTVSSASTKGPSVFPLAPSSKSTSGGTAALGCLVKDYFPEPVTVSWNSGALTSGVHTFPAVLQSSGLYSLSSVVTVPSSSLGTQTYICNVNHKPSNTKVDKKV[human IgG1 Fc not spelt out] light: DIVMTQSPDSLAVSLGERATINCRASESVNILGTNLIHWYQQKPGQPPKLLIYHASNLETGVPDRFSGSGSRTDFTLTISSLQAEDVAVYYCLQSRKIPWTFGGGTKVEIKRTVAAPSVFIFPPSDEQLKSGTASVVCLLNNFYPREAKVQWKVDNALQSGNSQESVTEQDSKDSTYSLSSTLTLSKADYEKHKVYACEVTHQGLSSPVTKSFNRGEC | 260000 | 0.000784
6 | M6-H4L3: humanized antibody of M6: huM6VH4 + huM6VL3 (antibody) heavy: EVQLVQSGAEVKKPGASVKVSCKASGYRFIPYWIEWVRERPGHGLEWMGEILPGTGRTNYNEKFKGRVTFTADTSTNTVYMELSSLTSEDTAVYYCARYGDDTSGGYYAVDYWGQGTTVTVSSASTKGPSVFPLAPSSKSTSGGTAALGCLVKDYFPEPVTVSWNSGALTSGVHTFPAVLQSSGLYSLSSVVTVPSSSLGTQTYICNVNHKPSNTKVDKKV[human IgG1 Fc not spelt out] light: DIVMTQSPATLSLSPGERATLSCRASESVNILGTNLIHWYQQKPGQAPKLLIYHASNLETGIPARFSGSGSRTDFTLTISSLEPEDVAVYYCLQSRKIPWTFGGGTKVEIKRTVAAPSVFIFPPSDEQLKSGTASVVCLLNNFYPREAKVQWKVDNALQSGNSQESVTEQDSKDSTYSLSSTLTLSKADYEKHKVYACEVTHQGLSSPVTKSFNRGEC | 246000 | 0.000962
7 | M6-H2L3: humanized antibody of M6: huM6VH2 + huM6VL3 (antibody) heavy: EVQLVQSGAEVKKPGASVKVSCKASGYRFIPYWIEWVRQAPGQGLEWMGEILPGTGRTNYNEKFKGRVTFTADTSTNTVYMELSSLRSEDTAVYYCARYGDDTSGGYYAVDYWGQGTTVTVSSASTKGPSVFPLAPSSKSTSGGTAALGCLVKDYFPEPVTVSWNSGALTSGVHTFPAVLQSSGLYSLSSVVTVPSSSLGTQTYICNVNHKPSNTKVDKKV[human IgG1 Fc not spelt out] light: DIVMTQSPATLSLSPGERATLSCRASESVNILGTNLIHWYQQKPGQAPKLLIYHASNLETGIPARFSGSGSRTDFTLTISSLEPEDVAVYYCLQSRKIPWTFGGGTKVEIKRTVAAPSVFIFPPSDEQLKSGTASVVCLLNNFYPREAKVQWKVDNALQSGNSQESVTEQDSKDSTYSLSSTLTLSKADYEKHKVYACEVTHQGLSSPVTKSFNRGEC | 216000 | 0.000994
8 | M6-H3L1: humanized antibody of M6: huM6VH3 + huM6VL1 (antibody) heavy: EVQLVQSGAEVKKPGASVKVSCKASGYRFIPYWIEWVRQRPGQGLEWMGEILPGTGRTNYNEKFKGRVTFTADTSTNTVYMELSSLRSEDTAVYYCARYGDDTSGGYYAVDYWGQGTTVTVSSASTKGPSVFPLAPSSKSTSGGTAALGCLVKDYFPEPVTVSWNSGALTSGVHTFPAVLQSSGLYSLSSVVTVPSSSLGTQTYICNVNHKPSNTKVDKKV[human IgG1 Fc not spelt out] light: DIVMTQSPDSLAVSLGERATINCRASESVNILGTNLIHWYQQKPGQPPKLLIYHASNLETGVPDRFSGSGSRTDFTLTISSLQAEDVAVYYCLQSRKIPWTFGGGTKVEIKRTVAAPSVFIFPPSDEQLKSGTASVVCLLNNFYPREAKVQWKVDNALQSGNSQESVTEQDSKDSTYSLSSTLTLSKADYEKHKVYACEVTHQGLSSPVTKSFNRGEC | 206000 | 0.000795
9 | M6-H3L3: humanized antibody of M6: huM6VH3 + huM6VL3 (antibody) heavy: EVQLVQSGAEVKKPGASVKVSCKASGYRFIPYWIEWVRQRPGQGLEWMGEILPGTGRTNYNEKFKGRVTFTADTSTNTVYMELSSLRSEDTAVYYCARYGDDTSGGYYAVDYWGQGTTVTVSSASTKGPSVFPLAPSSKSTSGGTAALGCLVKDYFPEPVTVSWNSGALTSGVHTFPAVLQSSGLYSLSSVVTVPSSSLGTQTYICNVNHKPSNTKVDKKV[human IgG1 Fc not spelt out] light: DIVMTQSPATLSLSPGERATLSCRASESVNILGTNLIHWYQQKPGQAPKLLIYHASNLETGIPARFSGSGSRTDFTLTISSLEPEDVAVYYCLQSRKIPWTFGGGTKVEIKRTVAAPSVFIFPPSDEQLKSGTASVVCLLNNFYPREAKVQWKVDNALQSGNSQESVTEQDSKDSTYSLSSTLTLSKADYEKHKVYACEVTHQGLSSPVTKSFNRGEC | 177000 | 0.000951
10 | M6-H2L1: humanized antibody of M6: huM6VH2 + huM6VL1 (antibody) heavy: EVQLVQSGAEVKKPGASVKVSCKASGYRFIPYWIEWVRQAPGQGLEWMGEILPGTGRTNYNEKFKGRVTFTADTSTNTVYMELSSLRSEDTAVYYCARYGDDTSGGYYAVDYWGQGTTVTVSSASTKGPSVFPLAPSSKSTSGGTAALGCLVKDYFPEPVTVSWNSGALTSGVHTFPAVLQSSGLYSLSSVVTVPSSSLGTQTYICNVNHKPSNTKVDKKV[human IgG1 Fc not spelt out] light: DIVMTQSPDSLAVSLGERATINCRASESVNILGTNLIHWYQQKPGQPPKLLIYHASNLETGVPDRFSGSGSRTDFTLTISSLQAEDVAVYYCLQSRKIPWTFGGGTKVEIKRTVAAPSVFIFPPSDEQLKSGTASVVCLLNNFYPREAKVQWKVDNALQSGNSQESVTEQDSKDSTYSLSSTLTLSKADYEKHKVYACEVTHQGLSSPVTKSFNRGEC | 229000 | 0.000896

From patent US20260232830A1, “ANTIGEN BINDING MOLECULE SPECIFICALLY BINDING TO EGFR AND MUC1, DRUG CONJUGATE THEREOF, AND MEDICAL USE THEREOF” (Jiangsu Hengrui Pharmaceuticals Co., Ltd., priority 2023, published 2026)
